Laboratory results published in patent US10487153B2, “Carbonic anhydrase IX-specific antibodies and uses thereof” (National Research Council of Canada, priority 2015, dated 2019).
Read-outs that look alike come from different tables or passages of the source.

Protein sequences, listed by entry. Tags and fused reporters are not part of them. Residues count along the entry.
UniProt Q8VHB5, 32-437: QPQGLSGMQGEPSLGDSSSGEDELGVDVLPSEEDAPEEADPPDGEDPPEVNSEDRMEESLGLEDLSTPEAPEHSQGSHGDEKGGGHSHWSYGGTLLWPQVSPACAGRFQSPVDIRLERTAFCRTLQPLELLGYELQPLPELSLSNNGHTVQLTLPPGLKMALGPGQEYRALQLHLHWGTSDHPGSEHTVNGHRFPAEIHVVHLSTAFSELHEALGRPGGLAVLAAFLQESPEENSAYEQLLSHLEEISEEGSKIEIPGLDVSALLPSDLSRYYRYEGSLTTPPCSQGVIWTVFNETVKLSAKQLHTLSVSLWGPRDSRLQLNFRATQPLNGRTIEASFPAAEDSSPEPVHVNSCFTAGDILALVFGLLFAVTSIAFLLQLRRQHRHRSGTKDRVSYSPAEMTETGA
UniProt Q8VHB5, 32-390 limits assumed: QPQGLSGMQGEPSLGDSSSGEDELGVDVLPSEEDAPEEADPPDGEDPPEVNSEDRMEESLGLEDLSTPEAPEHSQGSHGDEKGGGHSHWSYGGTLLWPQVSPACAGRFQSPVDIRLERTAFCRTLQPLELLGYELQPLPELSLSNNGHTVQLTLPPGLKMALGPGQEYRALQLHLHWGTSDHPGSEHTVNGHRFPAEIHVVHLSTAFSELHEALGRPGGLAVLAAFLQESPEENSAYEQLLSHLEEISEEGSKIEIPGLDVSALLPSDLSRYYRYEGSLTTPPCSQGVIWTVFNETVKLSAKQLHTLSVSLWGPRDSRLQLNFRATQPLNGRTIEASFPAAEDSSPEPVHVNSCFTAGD
UniProt Q9ULX7, 16-337: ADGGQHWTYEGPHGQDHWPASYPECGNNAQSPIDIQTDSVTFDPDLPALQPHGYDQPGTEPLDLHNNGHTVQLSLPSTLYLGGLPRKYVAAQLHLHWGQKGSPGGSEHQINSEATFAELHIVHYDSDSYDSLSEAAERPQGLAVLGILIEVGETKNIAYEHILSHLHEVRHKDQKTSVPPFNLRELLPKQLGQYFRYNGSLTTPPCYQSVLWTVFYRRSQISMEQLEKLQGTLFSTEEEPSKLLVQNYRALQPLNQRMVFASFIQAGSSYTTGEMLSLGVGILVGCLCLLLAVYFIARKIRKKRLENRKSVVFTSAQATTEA
UniProt P22748, 19-284: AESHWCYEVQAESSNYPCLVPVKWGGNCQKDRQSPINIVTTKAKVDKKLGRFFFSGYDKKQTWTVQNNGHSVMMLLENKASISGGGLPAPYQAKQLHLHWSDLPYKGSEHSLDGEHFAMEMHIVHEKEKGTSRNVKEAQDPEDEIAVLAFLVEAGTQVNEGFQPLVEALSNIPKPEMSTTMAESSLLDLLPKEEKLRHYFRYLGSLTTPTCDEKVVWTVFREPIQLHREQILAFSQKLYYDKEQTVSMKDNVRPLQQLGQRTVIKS
UniProt O43570, 25-354: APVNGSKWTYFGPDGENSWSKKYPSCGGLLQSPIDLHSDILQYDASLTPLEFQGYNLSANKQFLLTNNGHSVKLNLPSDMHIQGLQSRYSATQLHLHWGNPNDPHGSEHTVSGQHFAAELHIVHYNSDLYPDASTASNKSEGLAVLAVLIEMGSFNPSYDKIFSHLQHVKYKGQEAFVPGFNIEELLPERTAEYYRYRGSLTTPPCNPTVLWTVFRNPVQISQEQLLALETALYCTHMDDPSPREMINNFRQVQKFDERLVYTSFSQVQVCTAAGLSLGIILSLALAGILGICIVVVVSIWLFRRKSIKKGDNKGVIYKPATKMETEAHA
UniProt O43570, 25-301 limits assumed: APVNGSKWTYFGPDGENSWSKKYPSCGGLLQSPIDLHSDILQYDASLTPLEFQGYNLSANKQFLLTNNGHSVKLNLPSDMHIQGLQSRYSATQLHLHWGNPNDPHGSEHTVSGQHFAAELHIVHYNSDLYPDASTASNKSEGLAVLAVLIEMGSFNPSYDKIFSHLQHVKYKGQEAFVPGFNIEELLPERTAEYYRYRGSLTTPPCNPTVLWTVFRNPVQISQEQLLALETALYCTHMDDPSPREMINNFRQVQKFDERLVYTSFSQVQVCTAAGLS

B1: c11H9: chimeric 11H9, human kappa1 light chain and human IgG1 heavy chain; SEQ ID NO:27 and 28 (protein)
light: DVVMTQTPLSLPVSLGDQASISCRSSQSLVHSNGNTYLHWYLQKPGQSPKLLIYKVSNRFSGVPDRFSGSGSGTDFTLKISRVEAEDLGVYFCSQNTHVPPTFGGGTKLEIKRTVAAPSVFIFPPSDEQLKSGTASVVCLLNNFYPREAKVQWKVDNALQSGNSQESVTEQDSKDSTYSLSSTLTLSKADYEKHKVYACEVTHQGLSSPVTKSFNRGEC
heavy: EVQLVESGGRLVQPKGSLKLSCAASGFTFNTYAMYWIRQAPGKGLEWVARIRSKSNNYAIYYADSVKDRFTISRDDSQSMLYLQMNNLKTEDTAMYYCVRGWDWFAYWGQGTPVTVSAASTKGPSVFPLAPSSKSTSGGTAALGCLVKDYFPEPVTVSWNSGALTSGVHTFPAVLQSSGLYSLSSVVTVPSSSLGTQTYICNVNHKPSNTKVDKKV[letters of human IgG1 Fc omitted]
modifications: Chimeric 11H9 Light Chain; Chimeric 11H9 Heavy chain
B2: c2C7: chimeric 2C7, human kappa1 light chain and human IgG1 heavy chain; SEQ ID NO:25 and 26 (protein)
light: DIQMTQSPASLSASVGETVTITCRASGNIHNYLAWYQQKQGKSPQLLVYNTITLADGVPSRFSGSGSGTQYSLKINSLQPEDFGSYYCQHFWNIPFTFGAGTKLELKRTVAAPSVFIFPPSDEQLKSGTASVVCLLNNFYPREAKVQWKVDNALQSGNSQESVTEQDSKDSTYSLSSTLTLSKADYEKHKVYACEVTHQGLSSPVTKSFNRGEC
heavy: QVQLQQSGPELVKPGASVRISCKASGFTFTSCYIHWMKQRPGQGLEWIGWIYPGNGNTKYNEIFKGRATLTTDKSSSTAYMQLSSLTSEDSAVYFCARGDTTANTMDYWGQGTSVTVSSASTKGPSVFPLAPSSKSTSGGTAALGCLVKDYFPEPVTVSWNSGALTSGVHTFPAVLQSSGLYSLSSVVTVPSSSLGTQTYICNVNHKPSNTKVDKKV[letters of human IgG1 Fc omitted]
modifications: Chimeric 2C7 Light chain; Chimeric 2C7 Heavy Chain

Assays:
rmCA-IX = molecular target: T1, rmCA-IX (Mus musculus, UniProt Q8VHB5); experiment: Cross-reactivity determination by SPR; assay type: binding, murine; details: 100 nM analyte
T1 construct: purchased Sino Biologics Inc
Experimental: (§1) CA proteins for the analyte injection were purchased from Sino Biologics Inc.; the proteins were reconstituted as recommended by the manufacturer and diluted to 100 nM in SPR running buffer for binding analysis.

rhCA-XIV = molecular target: T2, rhCA-XIV (Homo sapiens, UniProt Q9ULX7); experiment: Cross-reactivity determination by SPR; assay type: binding; details: 100 nM analyte
T2 construct: purchased Sino Biologics Inc
Experimental: as §1

rhCA-IV = molecular target: T3, rhCA-IV (Homo sapiens, UniProt P22748); experiment: Cross-reactivity determination by SPR; assay type: binding; details: 100 nM analyte
T3 construct: purchased Sino Biologics Inc
Experimental: as §1

rhCA-XII = molecular target: T4, rhCA-XII (Homo sapiens, UniProt O43570); experiment: Cross-reactivity determination by SPR; assay type: binding; details: 100 nM analyte
T4 construct: purchased Sino Biologics Inc
Experimental: as §1

[1] = system: native peptides covering the hCA-IX ECD; assay type: binding, human; design: key: −, no binding; +, binding
Experimental: (§2) The hCA-IX fragments covering the entire hCA-IX ECD (FIG. 13A) or the PG domain alone (FIG. 13B) were expressed as fusion proteins (Aga2-HA-(CA-IX)-MYC (pPNL6 vector) or (CA-IX)-Aga2-MYC (pPNL200 vector)) on the yeast cell surface. The YSD vectors (pPNL6 and pPNL200) were from The Pacific Northwest National Laboratory, USA. […] The binding of the mAb to yeast cells was performed using a whole yeast cell ELISA. […] The binding of mAb to denatured yeast cells was normalized to the anti-MYC signal. The ratio of normalized anti-CA-IX signals of each mAb on native versus denatured hCA-IX peptide was thus indicative of the conformational nature of the epitope. In the native hCA-IX experiments, the commercial M75 mAb was used as a positive control; the epitope of this mAb is known (Zavada et al., 2000) and is located in the hCA-IX PG domain.

[2] = system: denatured peptides covering the hCA-IX ECD; assay type: binding, human; design: key: −, no binding; +, binding
Experimental: as §2

[3] = system: native peptides covering the hCA-IX ECD PG domain; assay type: binding, human; design: key: −, no binding; +, binding; details: PNL6 Aga2-HA-X-MYC; clone 15 A + B; Plasmid Ctrl, no peptide
Experimental: as §2

[4] = molecular target: T5, human CA-XII extracellular domain (ECD) (Homo sapiens, UniProt O43570); experiment: CA-XII binding by SPR; details: 100 nM of human CA-XII ECD
T5 construct: SPR measurements using 100 nM of human CA-XII extracellular domain (ECD)
Experimental: (§3) A ProteON GLC chip was activated with sEDS and sNHS prior to immobilizing approximately 4000 RUs of Goat anti-human Fc (Jackson InnumoResearch) via amine (lysine) coupling in 10 mM acetate buffer pH 4.5. This surface was then used to capture c2C7 and c12H8 on different flow cells. Recombinantly-expressed (CHO cells) SEC purified dimeric CA-IX extracellular domain (ECD) from human, mouse, dog and cynomolgus monkey and human CA-XII, were prepared in PBS with 0.02% Polysorbate-20. These dilutions were then flowed over the captured antibodies at 5 different concentrations from 100 nM to 1.23 nM using a flow rate 50 μL/min. […] Kinetic association and dissociation rate constants were determined from non-linear fitting of the observed responses to a 1:1 binding mocel. These rate constants were used to calculate the binding constant KD.

[5] = Differential Scanning Calorimetry (DSC) thermostability; assay type: physicochemical; details: 0.125 mg/mL in PBS, 90° C./hour, 25-100° C.; Cetuximab as positive control
Experimental: Melting temperatures (Tm) were determined from the integrated thermograms using Origin 7 software. The anti-HER1 antibody Cetuximab was used as a positive control.

[6] = molecular target: T6, dimeric CA-IX extracellular domain (ECD) from mouse (Mus musculus, UniProt Q8VHB5); experiment: CA-IX species binding by SPR; details: CA-IX ECD 100 nM to 1.23 nM, read-out: Specific binding, Mouse
T6 construct: SEC purified dimeric CA-IX extracellular domain (ECD) from human, mouse, dog and cynomolgus monkey; made in house; host or cells: CHO cells
Experimental: as §3

[7] = molecular target: dimeric CA-IX extracellular domain (ECD) from dog; experiment: CA-IX species binding by SPR; details: CA-IX ECD 100 nM to 1.23 nM, read-out: Specific binding, Dog
Experimental: as §3

[8] = molecular target: dimeric CA-IX extracellular domain (ECD) from cynomolgus monkey; experiment: CA-IX species binding by SPR; details: CA-IX ECD 100 nM to 1.23 nM, read-out: Specific binding, Cynomolgus
Experimental: as §3

[9] = system: Human-induced pluripotent (iPS) cardiomyocytes; experiment: Cardiotoxicity in iPS cardiomyocytes (CellTiter-Glo); assay type: cell-based; details: 10 nM; 3 and 5 days post-treatment; compared to non-specific human IgG1 negative control and corresponding ADC
Experimental: Human-induced pluripotent (iPS) cardiomyocytes were obtained from Cellular Dynamics Inc. iPS cardiomyocytes (iCells) were thawed and cultured according to the manufacturers instructions. Briefly, cells were thawed, resuspended in iCell plating media, seeded in 0.1% gelatin-coated 96-well plates (15,000 cells/well) and maintained in a humidified incubator with 5% CO2 at 37° C. for 4 hours. Cells were then washed to remove debris and the plating media was replaced with iCell Maintenance Media which was then changed every other day during the course of the experiment. […] A non-specific negative control human IgG1 and the corresponding DM1-conjugated ADC were also used for treated the cells using the same protocol. Cell viability was measured 3 and 5 days post-treatment using the CellTiter-Glo Luminescent cell viability Assay (Promega, Madison, Wis.). Briefly, the plates and reagents were equilibrated to room temperature for 30 minutes. A volume of CellTiter-Glo reagent was added to the volume of cell culture medium present in each well and mixed on an orbital shaker for 45 minutes. The luminescence was then recorded using an EnVision plate reader (PerkinElmer Inc.)

[10] = PNL6 Aga2-HA-X-MYC, clone 11B, Plasmid Ctrl, Neg Ctrl
[11] = PNL6 series, EBY100, no plasmid, Strain Ctrl, Neg Ctrl
[12] = PNL200 X-Aga2-MYC, clone 22A, Plasmid Ctrl, Neg Ctrl
[13] = PNL200 series, EBY100, no plasmid, Strain Ctrl, Neg Ctrl
[14] = PNL6 Aga2-HA-CA9-MYC, clone 3A, fragment 3, aa 1-136, SP+PG+
[15] = PNL200 CA9-Aga2-MYC, clone 14A, fragment 3, aa 1-136, SP+PG+

Row | Molecule | binding to rmCA-IX (rmCA-IX) | binding to rhCA-XIV (rhCA-XIV) | binding to rhCA-IV (rhCA-IV) | binding to rhCA-XII (rhCA-XII) | Anti-hCA-IX antibody binding intensity [1, 10] | Anti-hCA-IX antibody binding intensity [1, 11] | Anti-hCA-IX antibody binding intensity [1, 12] | Anti-hCA-IX antibody binding intensity [1, 13] | Anti-hCA-IX antibody binding intensity [2, 10] | Anti-hCA-IX antibody binding intensity [2, 11] | Anti-hCA-IX antibody binding intensity [2, 12] | Anti-hCA-IX antibody binding intensity [2, 13] | Anti-hCA-IX antibody binding intensity [3] | binding to human CA-XII ECD [4] | other results
1 | B1 | no binding was detected | no binding was detected | no binding was detected | no binding was detected | − | − | − | − | − | − | − | − | − | no binding | thermostability (DSC) [5]: slightly less stable
2 | B2 | no binding was detected | no binding was detected | no binding was detected | no binding was detected | − | − | − | − | − | − | − | − | − | no binding | Anti-hCA-IX antibody binding intensity [1, 14]: −; Anti-hCA-IX antibody binding intensity [1, 15]: −; Anti-hCA-IX antibody binding intensity [2, 14]: −; Anti-hCA-IX antibody binding intensity ([2]; PNL6 Aga2-HA-CA9-MYC, clone 9A, fragment 9, aa 1-414, SP+PG+CA+): −; Anti-hCA-IX antibody binding intensity [2, 15]: −; Anti-hCA-IX antibody binding intensity ([2]; PNL200 CA9-Aga2-MYC, clone 20A, fragment 9, aa 1-414, SP+PG+CA+): −; Kd [6]: > 20 nM; Kd [7]: > 20 nM; Kd [8]: < 20 nM; impact on cell viability [9]: neither c2C7, c12H8 or their corresponding DM1 conjugate ADCs had any significant impact
